Data: patent publication US12570607B2, “Compound as cyclin-dependent kinase 9 inhibitor and use thereof” (CSPC Zhongqi Pharmaceutical Technology (Shijiazhuang) Co., …, priority 2019, dated 2026)

Chains of the proteins cited; added tags and fusions are not shown.
UniProt Q12809, whole entry: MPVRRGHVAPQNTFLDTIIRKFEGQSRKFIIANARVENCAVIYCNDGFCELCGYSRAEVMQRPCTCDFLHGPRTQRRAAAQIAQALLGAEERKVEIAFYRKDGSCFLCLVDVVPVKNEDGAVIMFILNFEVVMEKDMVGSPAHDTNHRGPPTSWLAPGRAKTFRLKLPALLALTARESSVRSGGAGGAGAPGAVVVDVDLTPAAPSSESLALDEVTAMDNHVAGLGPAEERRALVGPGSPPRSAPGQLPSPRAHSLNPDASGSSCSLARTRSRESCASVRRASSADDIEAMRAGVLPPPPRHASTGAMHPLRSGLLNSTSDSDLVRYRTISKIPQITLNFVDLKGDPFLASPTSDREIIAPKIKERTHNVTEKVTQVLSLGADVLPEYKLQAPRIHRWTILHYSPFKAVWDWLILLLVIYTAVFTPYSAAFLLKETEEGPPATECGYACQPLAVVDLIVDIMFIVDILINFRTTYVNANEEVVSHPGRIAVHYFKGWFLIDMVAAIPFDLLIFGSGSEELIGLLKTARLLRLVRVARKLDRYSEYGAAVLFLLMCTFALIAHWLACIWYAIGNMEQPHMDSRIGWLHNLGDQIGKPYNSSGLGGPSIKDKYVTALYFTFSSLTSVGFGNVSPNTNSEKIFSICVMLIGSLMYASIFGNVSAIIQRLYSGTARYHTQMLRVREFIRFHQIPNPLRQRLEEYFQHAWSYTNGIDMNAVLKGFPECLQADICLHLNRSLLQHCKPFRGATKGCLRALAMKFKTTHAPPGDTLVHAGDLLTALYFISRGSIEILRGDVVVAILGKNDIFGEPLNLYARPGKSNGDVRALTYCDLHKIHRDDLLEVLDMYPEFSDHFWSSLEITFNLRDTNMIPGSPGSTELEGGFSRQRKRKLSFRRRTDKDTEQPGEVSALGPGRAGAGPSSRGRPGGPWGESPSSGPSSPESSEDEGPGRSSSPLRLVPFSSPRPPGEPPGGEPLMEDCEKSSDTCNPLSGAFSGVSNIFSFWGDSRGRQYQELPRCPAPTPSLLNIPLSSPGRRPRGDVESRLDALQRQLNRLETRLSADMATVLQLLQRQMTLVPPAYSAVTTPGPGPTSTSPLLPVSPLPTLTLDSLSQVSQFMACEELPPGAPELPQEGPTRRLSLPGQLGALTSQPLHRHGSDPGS

Assays:
[1] = system: MV4;11 cells; assay: In vitro MV4;11 cell proliferation inhibition (MTT method); settings: read-out: IC50 cell proliferation inhibition
[2] = molecular target: hERG channel (Homo sapiens (Human), UniProt Q12809)

CCOc1cc(F)ccc1-c1cc(NC(=O)[C@H]2CCC[C@@H](NC(C)=O)C2)ncc1F
IC50 [1]: 0.043 µM
IC50 [2]: > 30 µM

COc1cc(Cl)ccc1-c1cc(NC(=O)[C@H]2CCC[C@@H](NC(C)=O)C2)ncc1F
IC50 [2]: > 30 µM
